# scFv variants of Ab-14 (heavy chain) against a SARS-CoV-2 spike peptide

Binding partner: SARS-CoV-2 spike HR2 peptide, sequence PDVDLGDISGINAS.

Ab-14 is the parent antibody, in scFv form: VH, then a 15-residue (Gly4Ser)3 linker, then VL. The light chain is unchanged in all variants.
VH: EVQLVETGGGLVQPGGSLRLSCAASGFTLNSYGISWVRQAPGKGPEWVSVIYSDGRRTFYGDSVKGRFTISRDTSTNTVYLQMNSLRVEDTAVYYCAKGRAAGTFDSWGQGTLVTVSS
VL: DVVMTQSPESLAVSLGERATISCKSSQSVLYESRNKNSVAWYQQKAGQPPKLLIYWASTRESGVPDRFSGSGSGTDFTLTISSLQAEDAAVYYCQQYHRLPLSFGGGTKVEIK

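Designed CDR sequences, proposed from the first random library and measured here. Their group label is 14H_GP_HC (GP: Gaussian process model; HC: hill climbing; a sequence that several methods proposed may carry one label only). The scFvs were displayed on barcoded MATa yeast, the peptide on MATalpha yeast. The frequency of each diploid, read from paired DNA barcodes, reflects how well the two displayed proteins bind. Read counts were normalised to the haploid input and turned into Kd by a linear fit to BCL2-family pairs of known affinity, for each replicate. Each pool was mated in six replicate cultures.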

Sequences are complete VH domains. Affinities are written as log10 Kd with Kd in nM; a lower number is a better binder. Replicates are averaged; those with no signal do not enter the mean. "nd" marks a missing value. The strain was present, yet no cells mated with the target were sequenced in that replicate, which points to weak or no binding. The range of this assay differs from that of the first round, and the authors advise against merging the two.

VH,"log10 Kd, replicates","mean, log10 nM",signal with controls
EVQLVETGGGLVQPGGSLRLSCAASGFDLNSYGISWVRQAPGKGPEWVSVIYSDGRRTFYGDSVKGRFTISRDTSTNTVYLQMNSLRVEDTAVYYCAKGRRAGRFDSWGQGTLVTVSS,nd nd nd nd nd nd,nd,0 of 18
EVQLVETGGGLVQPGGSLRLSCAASGFWLNEYGISWVRQAPGKGPEWVSVIYSDGRRTFYHDSVKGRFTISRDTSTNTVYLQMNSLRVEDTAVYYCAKGRAAGFFDSWGQGTLVTVSS,nd nd nd nd nd nd,nd,0 of 18
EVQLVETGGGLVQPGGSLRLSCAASGFDLNSYGISWVRQAPGKGPEWVSVIYSDGRRTFYLDSVKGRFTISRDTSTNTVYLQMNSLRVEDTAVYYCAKGQVAGTFDSWGQGTLVTVSS,0.96 0.09 0.61 0.28 0.02 0.45,0.40,0 of 18
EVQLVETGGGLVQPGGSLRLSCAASGFTLNDYGISWVRQAPGKGPEWVSVIYSDGRRTMYMDSVKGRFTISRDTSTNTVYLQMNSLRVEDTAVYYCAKGRAAGTFDSWGQGTLVTVSS,0.52 1.85 nd nd 1.08 2.01,1.36,0 of 18
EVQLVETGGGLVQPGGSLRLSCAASGFTLNSYGISWVRQAPGKGPEWVSVIYSDGRRTFYDWSVKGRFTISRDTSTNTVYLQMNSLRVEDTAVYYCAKGQEAGTFDSWGQGTLVTVSS,nd nd nd nd nd nd,nd,0 of 18
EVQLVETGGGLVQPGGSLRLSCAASEFTLNEYGISWVRQAPGKGPEWVSVIYSDGRRTFYRDSVKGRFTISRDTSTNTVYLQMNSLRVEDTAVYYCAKGRTAGTFDSWGQGTLVTVSS,1.57 1.10 nd nd 1.47 nd,1.38,0 of 18
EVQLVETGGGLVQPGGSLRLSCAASKFTLNDYGISWVRQAPGKGPEWVSVIYSDGRRTFYTDSVKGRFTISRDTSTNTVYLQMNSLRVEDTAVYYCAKGRCAGTFDSWGQGTLVTVSS,nd nd nd nd nd nd,nd,0 of 18
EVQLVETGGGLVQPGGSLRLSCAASGFTLNNYGISWVRQAPGKGPEWVSVIYSDGRRTFYDDSVKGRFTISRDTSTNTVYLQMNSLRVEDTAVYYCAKGQAAGTFDSWGQGTLVTVSS,1.14 1.43 2.49 0.75 0.92 2.24,1.49,0 of 18
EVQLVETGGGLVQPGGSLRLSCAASGFSLNEYGISWVRQAPGKGPEWVSVIYSDGRRTFYCDSVKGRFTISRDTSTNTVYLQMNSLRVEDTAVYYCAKGVAAGTFDRWGQGTLVTVSS,0.69 nd 1.04 1.78 1.14 1.29,1.19,0 of 18
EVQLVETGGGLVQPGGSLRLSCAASGFTLNEYGISWVRQAPGKGPEWVSVIYSDGRRTFYGDAVKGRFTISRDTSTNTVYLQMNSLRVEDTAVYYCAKGRAAVTFDVWGQGTLVTVSS,nd nd nd nd nd nd,nd,0 of 18
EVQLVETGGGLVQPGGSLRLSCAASGFTLNEYGISWVRQAPGKGPEWVSVIYSDGRRTFYGDSVKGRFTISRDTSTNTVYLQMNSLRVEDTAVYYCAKGRAAVTFNKWGQGTLVTVSS,nd nd nd nd nd nd,nd,0 of 18
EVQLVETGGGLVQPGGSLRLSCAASGFSLNEYGISWVRQAPGKGPEWVSVIYSDGRRTFYGDDVKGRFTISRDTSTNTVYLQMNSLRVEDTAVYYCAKGRAAVTFDQWGQGTLVTVSS,nd nd nd nd nd nd,nd,0 of 18
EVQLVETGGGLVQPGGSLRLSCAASGFTLNDYGISWVRQAPGKGPEWVSVIYSDGRRTFYHDSVKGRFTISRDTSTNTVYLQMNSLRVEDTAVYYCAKGKAAGTFDSWGQGTLVTVSS,nd nd 0.52 0.78 0.65 1.06,0.75,0 of 18
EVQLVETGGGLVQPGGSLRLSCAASGFWLNEYGISWVRQAPGKGPEWVSVIYSDGRRTFYDDSVKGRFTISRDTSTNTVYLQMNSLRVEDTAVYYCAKGRAAGTFDSWGQGTLVTVSS,1.29 1.18 1.69 1.31 1.30 1.09,1.31,1 of 18 (1.94)
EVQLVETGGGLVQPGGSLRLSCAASGNTLNEYGISWVRQAPGKGPEWVSVIYSDGRRTFYHDSVKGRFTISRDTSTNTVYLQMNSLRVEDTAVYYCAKGRCAGTFDSWGQGTLVTVSS,nd nd 1.18 nd nd nd,1.18,0 of 18
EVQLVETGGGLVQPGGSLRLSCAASGFDLNSYGISWVRQAPGKGPEWVSVIYSDGRRTFYSDSVKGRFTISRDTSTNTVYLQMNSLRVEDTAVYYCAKGRAAGSFDSWGQGTLVTVSS,1.48 nd 0.26 0.98 nd 0.48,0.80,0 of 18
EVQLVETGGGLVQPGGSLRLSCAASGFDLNSYGISWVRQAPGKGPEWVSVIYSDGRRTFYKDSVKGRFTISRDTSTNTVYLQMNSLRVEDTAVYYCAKGQLAGTFDSWGQGTLVTVSS,0.80 0.27 0.15 0.34 0.22 0.07,0.31,1 of 18 (2.47)
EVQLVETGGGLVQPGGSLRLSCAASGFTLNSYGISWVRQAPGKGPEWVSVIYADGRRTFYGDSVKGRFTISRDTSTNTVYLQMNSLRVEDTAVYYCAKGRAADTNESWGQGTLVTVSS,nd nd nd nd nd nd,nd,1 of 18 (2.62)
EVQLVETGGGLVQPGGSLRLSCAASGFDLNSYGISWVRQAPGKGPEWVSVIYSDGRRTFYGDSVKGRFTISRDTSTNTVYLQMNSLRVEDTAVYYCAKGRTAGMFNSWGQGTLVTVSS,nd nd nd nd nd nd,nd,1 of 18 (0.50)
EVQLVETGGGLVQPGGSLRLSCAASGFTLNSYGISWVRQAPGKGPEWVSVIYSDGRRTFYSDSVKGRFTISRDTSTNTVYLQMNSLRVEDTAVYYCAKGRAAVTFDGWGQGTLVTVSS,nd nd nd nd nd nd,nd,0 of 18
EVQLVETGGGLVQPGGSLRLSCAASGFTLNDYGISWVRQAPGKGPEWVSVIYSDGRRTFYADSVKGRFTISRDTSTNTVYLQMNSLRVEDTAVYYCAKGRVAGTFWSWGQGTLVTVSS,1.93 2.34 2.06 1.78 3.99 1.55,2.28,0 of 18
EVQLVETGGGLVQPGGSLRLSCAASGFELNQYGISWVRQAPGKGPEWVSVIYSDGRRTFYSDSVKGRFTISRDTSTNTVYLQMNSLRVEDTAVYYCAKGEAAGTFDKWGQGTLVTVSS,0.15 0.47 0.31 0.32 0.09 0.32,0.28,0 of 18
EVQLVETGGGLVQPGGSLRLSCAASGFTLESYGISWVRQAPGKGPEWVSVIYADGRRTFYGDSVKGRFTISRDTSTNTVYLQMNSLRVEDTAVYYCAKGRAAGTFKSWGQGTLVTVSS,nd nd nd nd nd nd,nd,0 of 18
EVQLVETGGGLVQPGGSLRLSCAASGFTLDSYGISWVRQAPGKGPEWVSVIYSDGRRTFYGDSVKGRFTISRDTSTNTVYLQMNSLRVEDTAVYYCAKGKAAGTFDQWGQGTLVTVSS,1.20 1.47 0.98 nd 1.51 2.02,1.44,0 of 18
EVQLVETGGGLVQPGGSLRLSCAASGFELNQYGISWVRQAPGKGPEWVSVIYSDGKRTFYSDSVKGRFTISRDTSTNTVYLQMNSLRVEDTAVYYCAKGRAAGTFDSWGQGTLVTVSS,-0.03 -0.10 0.05 0.10 -0.28 -0.04,-0.05,0 of 18

For reference, 3 entries of the list once more:

VH,"log10 Kd, replicates","mean, log10 nM",signal with controls
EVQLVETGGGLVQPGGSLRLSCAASGFSLNEYGISWVRQAPGKGPEWVSVIYSDGRRTFYCDSVKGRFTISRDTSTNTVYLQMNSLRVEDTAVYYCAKGVAAGTFDRWGQGTLVTVSS,0.69 nd 1.04 1.78 1.14 1.29,1.19,0 of 18
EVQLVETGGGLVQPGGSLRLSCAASGFDLNSYGISWVRQAPGKGPEWVSVIYSDGRRTFYLDSVKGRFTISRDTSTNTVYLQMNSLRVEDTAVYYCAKGQVAGTFDSWGQGTLVTVSS,0.96 0.09 0.61 0.28 0.02 0.45,0.40,0 of 18
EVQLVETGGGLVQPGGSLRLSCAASGFWLNEYGISWVRQAPGKGPEWVSVIYSDGRRTFYDDSVKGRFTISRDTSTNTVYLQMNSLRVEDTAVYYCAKGRAAGTFDSWGQGTLVTVSS,1.29 1.18 1.69 1.31 1.30 1.09,1.31,1 of 18 (1.94)

Empty control strains, which show no peptide, gave a signal in 1% of pairings with all heavy chain designs; the median was 2.08 and 95% of these signals were weaker than 0.84. No background was subtracted. Also given: how often the same scFv was detected with the empty control strains, with their mean in brackets. The authors' rule: three or more of the six replicates give a measured affinity, fewer mean a poor binder. The parent sequence was in this pool as ten entries: three were never detected, three once, and four in most replicates, with averages from 0.34 to 2.37.

The measurements come from Li et al. 2023 (doi:10.1038/s41467-023-39022-2) through the FLAb antibody collection.